Data on 1 compound can be found in patent US12558350B2, “Compositions and methods for treatment” (Bausch + Lomb Ireland Limited, priority 2005, dated 2026).

Protein sequences, listed by entry. Tags and fused reporters are not part of them. Residues count along the entry.
UniProt P05107, 23-769: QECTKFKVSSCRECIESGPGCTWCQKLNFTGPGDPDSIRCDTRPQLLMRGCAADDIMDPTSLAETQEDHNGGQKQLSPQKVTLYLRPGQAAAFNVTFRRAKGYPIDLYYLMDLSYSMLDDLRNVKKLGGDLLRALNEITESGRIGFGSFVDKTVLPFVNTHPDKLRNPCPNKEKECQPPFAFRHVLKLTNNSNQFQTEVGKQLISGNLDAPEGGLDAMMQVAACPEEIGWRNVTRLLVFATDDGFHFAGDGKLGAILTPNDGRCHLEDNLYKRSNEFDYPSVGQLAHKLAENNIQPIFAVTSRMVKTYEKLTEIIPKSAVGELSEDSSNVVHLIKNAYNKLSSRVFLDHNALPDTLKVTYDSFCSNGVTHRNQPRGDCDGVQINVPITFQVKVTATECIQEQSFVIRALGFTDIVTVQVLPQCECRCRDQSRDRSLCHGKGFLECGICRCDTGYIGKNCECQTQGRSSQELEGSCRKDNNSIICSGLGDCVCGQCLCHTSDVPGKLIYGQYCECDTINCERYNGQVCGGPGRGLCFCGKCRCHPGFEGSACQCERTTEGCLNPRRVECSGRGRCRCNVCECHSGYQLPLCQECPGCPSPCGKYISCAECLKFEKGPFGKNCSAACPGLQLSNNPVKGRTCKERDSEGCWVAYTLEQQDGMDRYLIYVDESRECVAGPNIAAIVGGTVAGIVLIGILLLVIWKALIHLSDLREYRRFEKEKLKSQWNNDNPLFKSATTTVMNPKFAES
UniProt P20701, 26-1170: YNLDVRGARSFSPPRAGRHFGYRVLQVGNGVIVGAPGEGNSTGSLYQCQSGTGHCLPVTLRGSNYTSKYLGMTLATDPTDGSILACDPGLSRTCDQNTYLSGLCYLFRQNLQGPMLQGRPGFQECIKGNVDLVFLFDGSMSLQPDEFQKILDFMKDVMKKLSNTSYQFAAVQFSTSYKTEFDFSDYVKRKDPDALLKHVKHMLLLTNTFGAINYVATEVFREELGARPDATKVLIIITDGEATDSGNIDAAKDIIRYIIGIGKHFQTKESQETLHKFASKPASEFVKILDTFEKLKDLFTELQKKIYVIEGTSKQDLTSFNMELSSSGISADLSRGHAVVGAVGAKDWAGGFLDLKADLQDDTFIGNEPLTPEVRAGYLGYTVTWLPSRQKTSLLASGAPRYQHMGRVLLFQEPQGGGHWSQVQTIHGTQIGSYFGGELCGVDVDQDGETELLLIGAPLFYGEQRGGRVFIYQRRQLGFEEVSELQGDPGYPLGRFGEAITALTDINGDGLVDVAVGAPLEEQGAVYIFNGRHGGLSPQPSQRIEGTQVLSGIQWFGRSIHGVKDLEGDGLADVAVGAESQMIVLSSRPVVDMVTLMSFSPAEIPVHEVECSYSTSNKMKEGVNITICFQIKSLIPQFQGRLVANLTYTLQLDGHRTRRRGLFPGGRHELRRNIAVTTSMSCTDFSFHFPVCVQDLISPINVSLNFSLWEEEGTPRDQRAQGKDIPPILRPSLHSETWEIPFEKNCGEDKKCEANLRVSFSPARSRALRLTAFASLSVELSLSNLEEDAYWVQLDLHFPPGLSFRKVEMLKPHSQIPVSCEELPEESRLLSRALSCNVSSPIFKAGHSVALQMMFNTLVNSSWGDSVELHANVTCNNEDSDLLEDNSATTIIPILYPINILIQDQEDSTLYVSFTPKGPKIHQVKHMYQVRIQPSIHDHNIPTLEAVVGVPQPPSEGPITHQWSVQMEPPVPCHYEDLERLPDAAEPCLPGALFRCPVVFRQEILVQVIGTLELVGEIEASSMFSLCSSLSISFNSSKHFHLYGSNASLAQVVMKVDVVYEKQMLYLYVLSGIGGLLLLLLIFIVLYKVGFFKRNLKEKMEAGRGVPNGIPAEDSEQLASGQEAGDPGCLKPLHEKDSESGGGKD

Structures are written as SMILES.

One assay has as its target T1, LFA-1/ICAM-1 (Homo sapiens, UniProt P05107+P20701).
T1 construct: made in house; host or cells: human 293 cells
The assay is described as follows: LFA-1/ICAM-1 ligand binding ELISA with Schild analysis. As to conditions: FIG. 10A, C, E. From the text:
(§1) Pharmacologic Analysis of Drug-Receptor Interaction, Lippincott-Raven, Philadelphia). […] The order of antagonist concentrations was, -[…]-(lowest added antagonist concentration), -Δ-, -μ-, -♦-, -▪-, -σ- to -λ-(highest antagonist concentration). The fits of the data are shown as the solid lines. The data shown are from one plate and are representative of a minimum of two experiments.
This model is based upon the assumptions that equiactive responses in an assay are the result of equivalent occupancy of receptor by ligand and that maximal binding is unchanged by the presence of antagonist. In a Schild analysis, the dose ratio is the ratio of the EC50 values in the presence and absence of antagonist and is a measure of the ligand concentrations leading to equiactive responses. This dose ratio was determined for each concentration of antagonist and the Schild regressions were plotted as shown in FIG. 11.
(§2) In all cases the ligand was added concurrently with the antagonist. The plates were incubated for 6 h at 37° C. to approach equilibrium conditions after antagonist and ligand addition, before wash and addition of the detection antibody. The EC50 values for each curve were determined by fitting with a four parameter model as described above. […] The slopes of the plots of the Log (Conc. ratio −1) vs. Antagonist concentration are calculated by fitting the line to the linear equation, Y=A+BX.
(In general: An ELISA detects its analyte on a solid surface through an enzyme-linked reagent.)

Assay [1] concerns the target T2, LFA-1 (Homo sapiens, UniProt P05107+P20701).
T2 construct: made in house; host or cells: human 293 cells
The assay is described as follows: LFA-1/small molecule ligand binding ELISA. The note with it: FIG. 10B, D, F. The procedure: as §1, §2

The target in assay [2] is T2, LFA-1. The assay can be described thus: LFA-1/small molecule ELISA, antagonist competition with compound 2B. The class given is binding.

As to `CC(=O)N1CCN(C(=O)/C=C/c2ccc(Sc3ccccc3C(C)C)c([N+](=O)[O-])c2)CC1` [A-286982, reference compound], the “effect of increasing antagonist concentration on ICAM-1-Ig binding curves” value at LFA-1/ICAM-1 is “the maximum binding of ICAM-1-Ig to LFA-1 decreased considerably”. For the same compound, the “effect of increasing antagonist concentration on compound 2B binding curves” value on LFA-1 [1] was “shifted the compound 2B binding curves to lower EC50 values”. Moreover, the “effect on binding of compound 2B to LFA-1” value at LFA-1 [2] (FIG. 8B) is “did not inhibit but rather enhanced”. Further, the “concentration of maximal enhancing effect on compound 2B binding” value at LFA-1 [2] (transient increase in absorbance) is reported as “approximately 4 μM”.
